“Also recorded” adds a separate entry of the source.
Assay: Single-dose oral pharmacokinetic study of one Phycox soft chew in dogs (serum, LC-MS/MS, non-compartmental analysis)
Format: in vivo, dog (female Beagle)
Settings: single PO Phycox soft chew (36.1 μg ±hesperetin, 0.554 μg trans-resveratrol, 2.88 μg ±naringenin), serum 0-24 h, LOQ 5 ng/mL
Source text: The animal research protocol used in this study was reviewed and approved by the Institutional Animal Care and Use Committee at Washington State University (protocol #04224-011, approved 21 December 2014). Four commercially available purpose-bred intact female research Beagles from an Association for Assessment and Accreditation of Laboratory Animal Care (AALAC) certified source were used for the study. All dogs were 2 years of age at the onset of the study with a weight of 9.25 ± 0.81 kg (mean ± SD; range 8.4–10.2 kg). Animals were housed in AALAC approved facilities for animal research for 80 days acclimating to their environment prior to the initiation of the study. […] Following centrifugation of the blood samples, serum was removed and stored at −80 °C until analyzed. […] PK samples were analyzed using Phoenix WinNonlin software (ver. 6.3; Certara, St. Louis, MO, USA) to derive the pharmacokinetic parameters for each individual dog and expressed as mean ± SEM. […] The AUC0–∞ was calculated using the long-linear trapezoidal rule for data from time of dosing to the last measured concentration plus the quotient of the last measured concentration divided by KE/2.303. […]

±naringenin
serum concentration of polyphenol (aglycone or glucuronidated metabolite): not detected at quantifiable concentrations; also recorded: no compounds were detected at quantifiable concentrations

— article PMC5620571, “Pharmacokinetic Analysis of an Oral Multicomponent Joint Dietary Supplement (Phycox®) in Dogs” (Pharmaceutics, 2017)
